# Measured values reported in article PMC7217150, “Synthesis, Modification, and Biological Evaluation of a Library of Novel Water‐Soluble Thiopyridone‐Based Organometallic Complexes and Their Unexpected (Biological) Behavior” (Chemistry (Weinheim an Der Bergstrasse, Germany), 2020).
# Assays:
# [1] = tested on: human cancer cell lines CH1/PA‐1, SW480, A549
# [2] = pH 7.2
# Protocol: Stock solutions containing the desired complex in DMSO (5 mM) were diluted with phosphate buffer (pH 7.2) to a final concentration of […] compound in 1 % DMSO/20 mM buffer and directly analyzed by four different isocratic UHPLC runs (Δ=5 %). The lipophilicity parameters logkw and lipophilicity indices φ0 were calculated according to literature.7, 37
substance,measurement,setting,value
"Chlorido[1‐benzyl‐2‐methyl‐3‐oxo‐κO‐pyridine‐4(1H)‐thionato‐κS](η^5‐1,2,3,4,5‐pentamethylcyclopentadienyl)rhodium(III) [Compound 5 c]",cytotoxicity relative to 3 c and 4 c,[1],up to 20 times
same,φ0 (chromatographic lipophilicity index),[2],6.28
